Test results reported in PubChem BioAssay AID2107 (National Center for Advancing Translational Sciences (NCATS), 2009).
The list shows a part of the results, in another mix than the full data. The source made the active and inactive calls. Calls follow the shape of the dose curve; as a rule, active = well fitted inhibition curve with a large enough effect; inconclusive = small, poorly fitted or top-dose-only effect, or effect the other way; inactive = flat fitted curve, though single readings scatter.
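Also: 0% = enzyme with vehicle and -100% = no enzyme basal signal.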

Chains of the proteins cited; added tags and fusions are not shown. Residues count along the entry.
UniProt P06280, 32-429 limits assumed: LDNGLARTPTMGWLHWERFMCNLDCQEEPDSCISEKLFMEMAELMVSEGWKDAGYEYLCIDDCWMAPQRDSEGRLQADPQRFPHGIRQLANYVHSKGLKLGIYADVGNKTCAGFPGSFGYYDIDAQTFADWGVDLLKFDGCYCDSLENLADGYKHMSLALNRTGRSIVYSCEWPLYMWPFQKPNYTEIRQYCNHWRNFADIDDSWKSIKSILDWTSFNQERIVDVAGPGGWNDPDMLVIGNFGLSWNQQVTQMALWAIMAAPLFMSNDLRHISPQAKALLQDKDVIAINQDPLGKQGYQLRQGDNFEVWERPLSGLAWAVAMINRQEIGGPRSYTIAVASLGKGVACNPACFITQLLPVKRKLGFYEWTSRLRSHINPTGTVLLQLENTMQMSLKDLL

Each compound was assayed against Alpha-galactosidase A (Homo sapiens) (UniProt P06280) (assay: qHTS Assay for Inhibitors and Activators of Human alpha-Galactosidase From Spleen Homogenate). Conditions: 4MU-alpha-Gal fluorescence, 40 min; at 80 µM (top of the series) unless noted.
Source text: NIH Chemical Genomics Center [NCGC] NIH Molecular Libraries Probe Production Centers Network [MLPCN] MLPCN Grant: R03 MH084842-01 Assay Submitter (PI): Wei Zheng NCGC Assay Overview: Alpha-galactosidase is a homodimeric glycoprotein that hydrolyzes the terminal alpha-galactosyl moieties from glycolipids and glycoproteins. Deficiency of this enzyme results in Fabry Disease with progressive accumulation of globotriaosylceramide and other glycosphingolipids in vascular endothelial cells that causes renal failure, myocardial infarction and stroke, and premature death in patients. It has been reported that the improper folding and trafficking of alpha-galactosidase resulting from genetic mutations may account for a significant number of Fabry patients. […] We optimized this alpha-galactosidase assay in 1536-well plate format for identification of novel small molecule inhibitors or activators with structures other than the sugar analogs in order to develop new pharmacological chaperones. In particular, this assay is directed towards discovering compounds active in more natural setting, tissue homogenate, that may have been missed by screens of the purified enzyme under more stringent conditions.
NCGC Assay Protocol Summary: This is a fluorogenic enzyme assay with 4-methylumbelliferyl-alpha-D-galactopyranoside as the substrate and human spleen homogenate containing alpha-galactosidase as the enzyme preparation. Upon hydrolysis of this fluorogenic substrate, the resulting product, 4-methylumbelliferone (which excites at 365 nm and emits at 440 nm) can be detected by a fluorescence plate reader. Data were normalized to the controls for basal activity (without enzyme) and 100% activity (with enzyme). The AC50 values were determined from concentration-response data modeled with the standard Hill equation. Assay buffer: 50 mM citric acid (titrated with potassium phosphate to pH 5.0), 0.01% Tween-20 (pH 5.0 is an optimal condition for this enzyme assay) 1536-well assay protocol for the alpha-galactosidase from human spleen homogenate: (1) Add 2 ul/well spleen homogenate (1 ug) (2) Add 23 nL compounds in DMSO solution. The final titration was 0.5 nM to 58 uM. (3) Add 2 ul of substrate (1 mM final) (4) Incubate at 37C for 40 min (5) Add 2 ul stop solution (1M NaOH and 1M Glycine mixture, pH 10) (6) Detect the assay plate in a ViewLux plate reader (PerkinElmer) with Ex=365 nm and Em=440nm. Keywords: Alpha-galactosidase, Fabry Disease, pharmacological chaperone, chaperone therapy, high throughput screening, alpha- galactosidase inhibitor, MLSMR, MLSCN, NIH Roadmap, qHTS and NCGC
With `CP(=O)(Oc1ccccc1)OC(c1ccccc1)C(F)(F)F` (stereo not given) the activity change, negative = inhibition was inactive: -2.09%. `CP(=O)(Nc1ccccc1Br)Oc1ccccc1` (stereo not given) was tested, and the activity change, negative = inhibition was inactive: -2.15%. `COc1ccccc1OP(C)(=O)Nc1ccccc1` (stereo not given) was tested, and the activity change, negative = inhibition was inactive: -0.432%. `CP(=S)(Nn1cnnc1)Oc1ccccc1` (stereo not given) was tested, and the activity change, negative = inhibition was inactive: -15.3%. With `Cc1cc(C)cc(OP(C)(N)=O)c1` (stereo not given) the activity change, negative = inhibition was inactive: 16.7%. For `COc1ccccc1OP(C)(=O)Nc1cc(Cl)ccc1C` (stereo not given), the activity change, negative = inhibition was inactive: -0.687%. `COc1ccc(OP(C)(=O)Nc2cccc(F)c2)cc1` (stereo not given) was tested, and the activity change, negative = inhibition was inactive: 3.48%. `COc1ccccc1OP(C)(=O)Nc1ccc(C)cc1` (stereo not given) was tested, and the activity change, negative = inhibition was inactive: -1.11%. For `Cc1ccc(NP(C)(=O)Oc2ccccc2)c(C)c1` (stereo not given), the activity change, negative = inhibition was inactive: 2.68%. `CCOC(=O)c1ccc(NP(C)(=O)Oc2ccccc2)cc1` (stereo not given) was tested, and the activity change, negative = inhibition was inactive: 8.06%. In the case of `O=[N+]([O-])c1ccc2c(c1)C=Nc1ccccc1O2`, the activity change, negative = inhibition is reported as inactive: 0.906%. With `CC(C)(C)c1ccc(OP(C)(=O)Nc2ccc(SC(F)(F)F)cc2)cc1` (stereo not given) the activity change, negative = inhibition was inactive: -8.8%. With `O=C(O)C(O)(c1ccccc1)c1ccccc1` the activity change, negative = inhibition was inactive: 14.2%. For `Cc1cccc(C)c1OP(C)(N)=O` (stereo not given), the activity change, negative = inhibition was inactive: -12.1%. With `O=C(O)C1(O)c2ccccc2-c2ccccc21` the activity change, negative = inhibition was inactive: -7.29%. `O=[N+]([O-])[O-].[NH4+]` was tested, and the activity change, negative = inhibition was inactive: 10.2%. In the case of `CCN(CC)CCCOC(=O)C(O)(c1ccccc1)c1ccccc1`, the activity change, negative = inhibition is reported as inactive: 7.12%. For `COc1ccccc1OP(C)(=O)Nc1ccc(C)cc1C` (stereo not given), the activity change, negative = inhibition was inactive: -12.6%. For `CCc1ccc(OP(C)(=O)O)cc1`, the activity change, negative = inhibition was inactive: 1.96%. In the case of `O=[N+]([O-])c1cc([N+](=O)[O-])c(Nc2ccccn2)c([N+](=O)[O-])c1`, the activity change, negative = inhibition is reported as inactive: -0.0912%. `Cc1c(NP(C)(=O)Oc2ccc(C(C)C)cc2)c(=O)n(-c2ccccc2)n1C` (stereo not given) was tested, and the activity change, negative = inhibition was inactive: -3.42%. `COc1ccc(OP(C)(=O)Nc2ccccn2)cc1` (stereo not given) was tested, and the activity change, negative = inhibition was inactive: 4.57%. `CN(C)CCOC(=O)C(O)(c1ccccc1)C1CCCC1` (stereo not given) was tested, and the activity change, negative = inhibition was inactive: -2.15%. `COc1ccccc1OP(C)(=O)Nc1ccc(Br)cc1` (stereo not given) was tested, and the activity change, negative = inhibition was inactive: -0.28%. In the case of `CP(=O)(OCCOc1ccccc1)OCCOc1ccccc1`, the activity change, negative = inhibition is reported as inactive: 2.03%. For `CP(=O)(Nc1ccc(Cl)cc1Cl)Oc1ccccc1` (stereo not given), the activity change, negative = inhibition was inactive: -0.445%. With `Cc1nc2ccc3ccccc3c2o1.O=[N+]([O-])c1cc([N+](=O)[O-])c(O)c([N+](=O)[O-])c1` the activity change, negative = inhibition was inactive: -7.13%. `COc1ccccc1OP(C)(=O)Nc1ccc(C)c(C)c1` (stereo not given) was tested, and the activity change, negative = inhibition was inactive: -2.91%. `COc1ccc(OP(C)(=O)Nc2ccccc2Br)cc1` (stereo not given) was tested, and the activity change, negative = inhibition was inactive: -4.72%. With `Cc1cc(C)cc(OP(C)(=O)Nc2cccc(C(F)(F)F)c2)c1` (stereo not given) the activity change, negative = inhibition was inactive: 3.79%.
